This is an account of results in paper PMC10512030, “Prolidase-proline oxidase axis is engaged in apoptosis induction by birch buds flavonol santin in endometrial adenocarcinoma cell line” (Frontiers in Molecular Biosciences, 2023).

For this experiment, the system named is cervical adenocarcinoma HeLa cells. The experiment in a line: Cell viability MTT assay, HeLa. It counts as cell-based. The following applies: Homo sapiens, 48 h, read-out: IC50 values ± SD in MTT assay.

For `O=c1cc(-c2ccc(O)c(O)c2)oc2cc(O)cc(O)c12` [luteolin, reference compound], the IC50 is approximately 21.7 µM.
